From ChEMBL document CHEMBL1139188, “Identification of diamino chromone-2-carboxamides as MCHr1 antagonists with minimal hERG channel activity” (Bioorg Med Chem Lett, 2007)

Chains of the proteins cited; added tags and fusions are not shown. Lines headed by an entry give the natural chain unless they say otherwise; changes in a name come on top.
UniProt Q99705: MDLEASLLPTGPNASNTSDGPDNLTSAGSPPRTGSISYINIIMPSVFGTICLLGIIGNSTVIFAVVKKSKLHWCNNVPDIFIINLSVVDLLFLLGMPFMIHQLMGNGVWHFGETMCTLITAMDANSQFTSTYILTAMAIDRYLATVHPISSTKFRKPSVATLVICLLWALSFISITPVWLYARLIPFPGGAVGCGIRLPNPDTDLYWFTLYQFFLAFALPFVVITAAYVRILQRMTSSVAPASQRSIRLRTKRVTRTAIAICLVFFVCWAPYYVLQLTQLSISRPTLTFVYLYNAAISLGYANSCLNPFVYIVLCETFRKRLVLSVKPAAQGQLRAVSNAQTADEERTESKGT

How the values were obtained:
[1] = target: T1, Melanin-concentrating hormone receptor 1 (Homo sapiens, UniProt Q99705); assay: Antagonist activity at MCHR1 assessed as inhibition of MCH-mediated calcium release in IMR32 cells; format: functional, cell-based, IMR-32
[2] = target: T1, Melanin-concentrating hormone receptor 1; assay: Displacement of [125I]MCH from MCHR1 expressed in IMR32 cells; format: cell-based, IMR-32

Row | Structure (SMILES) | IC50 [1] | IC50 [2]
1 | O=C(NC1CCN(Cc2ccc(C(=O)NCCN3CCCC3)c(F)c2)CC1)c1cc(=O)c2ccc(F)cc2o1 | 420 nM | 29 nM
2 | O=C(NCCN1CCCC1)c1ccc(CN2CCC(NC(=O)c3cc(=O)c4ccc(F)cc4o3)CC2)c(Cl)c1 | 136 nM | 2 nM
3 | COc1cc(C(=O)NCCN2CCCC2)ccc1CN1CCC(NC(=O)c2cc(=O)c3ccc(F)cc3o2)CC1 | 270 nM | 26 nM
4 | O=C(CCN1CCCCC1)Nc1ccc(CN2CCC(NC(=O)c3cc(=O)c4ccc(F)cc4o3)CC2)cc1F | 120 nM | 23 nM
5 | O=C(NC1CCN(Cc2ccc(OCCN3CCOCC3)c(F)c2)CC1)c1cc(=O)c2ccc(F)cc2o1 | – | > 2000 nM
6 | COC(C)(C)CCOc1ccc(CN2CCC(NC(=O)c3cc(=O)c4ccc(F)cc4o3)CC2)cc1 | 1750 nM | 165 nM
7 | O=C(NC1CCN(Cc2ccc(OCC(F)(F)F)c(F)c2)CC1)c1cc(=O)c2ccc(F)cc2o1 | – | 64 nM
8 | O=C(NC1CCN(Cc2ccc(OCCN3CCCC3)c(F)c2)CC1)c1cc(=O)c2ccc(F)cc2o1 | > 10000 nM | 1520 nM
9 | O=C(NC1CCN(Cc2ccc(OCCCN3CCCCC3)c(F)c2)CC1)c1cc(=O)c2ccc(F)cc2o1 | 86 nM | 3 nM

Second part, the molecule after the results:

Row | IC50 [1] | IC50 [2] | Structure (SMILES)
10 | 480 nM | 31 nM | CO/N=C/COc1ccc(CN2CCC(NC(=O)c3cc(=O)c4ccc(F)cc4o3)CC2)cc1F
11 | 545 nM | 4 nM | O=C(NC1CCN(Cc2ccc(OCCCN3C(=O)CSC3=O)c(F)c2)CC1)c1cc(=O)c2ccc(F)cc2o1
12 | 2930 nM | 86 nM | O=C(NCCN1CCC(F)(F)CC1)c1ccc(CN2CCC(NC(=O)c3cc(=O)c4ccc(F)cc4o3)CC2)cc1
13 | 1980 nM | 15 nM | CC(C)CO/N=C/COc1ccc(CN2CCC(NC(=O)c3cc(=O)c4ccc(F)cc4o3)CC2)cc1F
